Measured values taken from PMC5979958 (Scientific Reports, 2018).

These binders were tested against T1, biotinylated N-terminal peptide human CXCR4(1–27) (human, UniProt P61073 1-27, biotin introduced N-terminally following an amino-caproic acid (Aca) spacer) (assay: peptide or protein array; MIF peptides immobilised covalently on a glass slide (SPOT synthesis); probed with 200 µl biotinylated CXCR4(1–27) (10 µg/ml) in blocking buffer for 30 min, washed with TBS containing 0.1% Tween 20, developed with Cy5-streptavidin or HRP-streptavidin; background-corrected signal intensity). Conditions: both partners purified.
T1 construct: chemokine receptor CXCR4, human, N-terminal residues 1–27; Probe in solution for all peptide spot arrays; also called biotin-CXCR4(1–27); biotinylated CXCR4 N-terminus; source: synthetic peptide (Fmoc-SPPS, HPLC purified)

| binding result | Binder |
| --- | --- |
| binds | GLLAERLRISPDRVY (peptide, UniProt P14174 82-96, looked up, source: SPOT synthesis, immobilised on a glass slide array) [MIF peptide 82–96] |
| binds | RSYSKLLCGLLAERLR (peptide, UniProt P14174 74-89, looked up, source: SPOT synthesis, immobilised on a glass slide array) [MIF peptide 74–89] |
| binds | NRSYSKLLCGLLAERLRI (peptide, UniProt P14174 73-90, looked up, source: SPOT synthesis, immobilised on a glass slide array) [MIF peptide 73–90] |
| binds | SYSKLLCGLLAERLR (peptide, UniProt P14174 75-89, looked up, also called wild-type peptide 75–89; source: SPOT synthesis, immobilised on a glass slide array) [MIF peptide 75–89] |
| binds | AQNRSYSKLLCGLLAERLRI (peptide, UniProt P14174 71-90, looked up, source: SPOT synthesis, immobilised on a glass slide array) [MIF peptide 71–90] |
| binds | AERLRISPDRVYINY (peptide, UniProt P14174 85-99, looked up, source: SPOT synthesis, immobilised on a glass slide array) [MIF peptide 85–99] |
| binds | KLLCGLLAERLRISP (peptide, UniProt P14174 78-92, looked up, also called wild-type peptide 78–92; source: SPOT synthesis, immobilised on a glass slide array) [MIF peptide 78–92] |
| binds | LAERLRISPDRVYIN (peptide, UniProt P14174 84-98, looked up, also called wild-type peptide 84–98; source: SPOT synthesis, immobilised on a glass slide array) [MIF peptide 84–98] |
| binds | SYSKLLCGLLAERLRI (peptide, UniProt P14174 75-90, looked up, also called MIF(75–90); source: SPOT synthesis, immobilised on a glass slide array) [MIF peptide 75–90] |
| binds | ERLRISPDRVYINYY (also called MIF(86–100); source: synthetic peptide, custom-synthesized by Peptide Specialty Laboratories (PSL, Heidelberg); on the array: SPOT synthesis) [MIF peptide 86–100] |
| binds | YSKLLCGLLAERLRI (also called MIF(76–90); source: SPOT synthesis, immobilised on a glass slide array; free peptide for chemotaxis custom-synthesized by Peptide Specialty Laboratories (PSL, Heidelberg)) [MIF peptide 76–90] |
